Tests used:
[1] = molecular target: FL-NLS: FITC-XRCC1 (241–276) (human); assay: fluorescence polarisation; direct titration: serial dilutions of Impα into 100 nM FITC-labeled peptide; FP buffer (20 mM Tris pH 7.7, 125 mM NaCl, 1 mM EDTA, 2 mM TCEP, 5% sucrose, 10 mM NaN3); room temperature (legend: 25 °C); apparent dissociation constants, single-site fit
[2] = molecular target: M1: FITC-GG-XRCC1 (244-248) (human); assay: as above

| cooperativity parameter α (cooperative binding model) [1] | half-saturation point (cooperative binding model) [1] [µM] | Kd [2] [µM] | Substance |
| --- | --- | --- | --- |
| 633 | 0.116 | 8.4 | murine Importin α with the Importin β binding domain (IBB) deleted, Impα(70–529) (from UniProt P52293 70-529) (domain or fragment) |
| – | – | 10.4 | Impα(70–529)(W184R/W231R) (from UniProt P52293 70-529) (domain or fragment) |

Source: publication PMC4548243, “Nuclear Localization of the DNA Repair Scaffold XRCC1: Uncovering the Functional Role of a Bipartite NLS” (Scientific Reports, 2015)
